## Apparent affinities of Ab-95 variants for a coronavirus HR2 peptide

Source: Engelhart et al. 2022 (doi:10.1038/s41597-022-01779-4), MIT Lincoln Laboratory and A-Alpha Bio; data file from the FLAb repository.

Target: peptide PDVDLGDISGINAS, taken from heptad repeat 2 (HR2) of SARS-CoV-2 spike.

The variants keep the heavy chain, the linker and the frameworks of Ab-95 (scFv order VH, a (GGGGS)3 linker, VL).
VH: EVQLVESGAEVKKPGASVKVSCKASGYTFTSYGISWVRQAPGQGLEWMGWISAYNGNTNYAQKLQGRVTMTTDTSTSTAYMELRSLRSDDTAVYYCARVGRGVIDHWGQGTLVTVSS
VL: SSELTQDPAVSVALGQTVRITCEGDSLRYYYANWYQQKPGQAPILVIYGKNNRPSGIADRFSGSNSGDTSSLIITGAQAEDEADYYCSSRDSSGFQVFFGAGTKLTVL

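The parent was found by panning a naive human phage display library on the peptide. In library AAYL52, one, two or three CDR residues were substituted; doubles and triples were drawn at random. The assay is AlphaSeq: two haploid yeast populations carry antibody and antigen on their surface. After mating in shaken culture at 30 °C for 16 h, diploids were selected and their barcode pairs sequenced. A regression on co-assayed BCL2-family reference pairs converts the normalised counts of each replicate to an apparent Kd. There are three technical replicates.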

Variants are written as CDR1, CDR2 and CDR3 of the light chain (limits as in the source). Parent: EGDSLRYYYAN, GKNNRPS, SSRDSSGFQVF. Numbers give log10(Kd / nM), so 0 is 1 nM and 3 is 1 µM. Smaller is tighter. The mean shown is taken over the replicates in which the pair was detected. An entry "ND" has no value in the source: the pair was not observed among the diploids in that replicate. This suggests poor binding but is not conclusive. Nonspecific signal, from three strains lacking the peptide, appeared in 28% of pairings of library AAYL52, centred on 3.91 (5% of these signals below 2.90); values are not corrected for it. The control count says in how many pairings with the empty strains this scFv gave a signal, with their mean in brackets.

| CDR-L1 | CDR-L2 | CDR-L3 | log10 Kd, replicates | mean log10 Kd (nM) | empty controls |
|---|---|---|---|---|---|
| EGDFLRYYYAN | GKNNMPS | SSRDSSGFQVK | ND ND 4.52 | 4.52 | 4/9 (4.12) |
| EGDSLRNYYAN | GKNARPS | SSRDSSGFQGF | 3.30 4.04 4.04 | 3.80 | 0/9 |
| EGDSHRYWYAN | GKNNRSS | SSRDSSGFQVF | 4.33 3.61 ND | 3.97 | 3/9 (3.17) |
| EVDSLRYYYAN | GKNNRPS | SSRDSSCFQVN | ND ND 4.08 | 4.08 | 1/9 (4.20) |
| EGDSLLYYYAH | GKNNRPS | SSRDYSGFQVF | 2.94 2.78 4.25 | 3.32 | 2/9 (4.29) |
| EGDSKRYYYAN | FKNNRPS | SSRDISGFQVF | ND ND ND | ND | 0/9 |
| EGDSLRKYYAN | GKNNRPS | SSNDSSGFQYF | ND 4.32 ND | 4.32 | 0/9 |
| EGDSLRYYDRN | GKNNRPS | SSRDSSGRQVF | 1.94 2.09 2.04 | 2.02 | 1/9 (3.73) |
| EGASLRYRYAN | GKNNRPS | SSRDSSGFQVQ | 2.07 2.21 1.97 | 2.08 | 2/9 (2.98) |
| EGDSLRYNYAN | GKNSRPS | SSRDSSGLQVF | 1.56 1.42 1.41 | 1.46 | 2/9 (4.85) |
| EGCSLCYYYAN | GKNNLPS | SSRDSSGFQVF | 3.91 4.79 ND | 4.35 | 1/9 (2.68) |
| EGESLRYYYAM | GKNNRPS | SSRDSSGFQVF | 4.97 5.41 ND | 5.19 | 1/9 (3.90) |
| EGDSLRYYYAG | GKNNRPY | SSRDSSGAQVF | 2.69 2.56 2.20 | 2.48 | 5/9 (3.82) |
| PGDSLPYYYAN | GKNNRYS | SSRDSSGFQVF | ND ND 3.19 | 3.19 | 1/9 (4.29) |
| LGDSLRYYAAN | CKNNRPS | SSRDSSGFQVF | 2.06 2.35 2.23 | 2.21 | 3/9 (3.69) |
| EGDSLRYYYAN | PKNNRVS | SSRRSSGFQVF | 4.00 3.46 ND | 3.73 | 5/9 (3.47) |
| EGDSLRYYYAN | GYNNRWS | SSRDSSGFQVC | ND 3.92 ND | 3.92 | 2/9 (3.96) |
| EGTSLRYYYAN | VKNNRPS | SSRDSSGFQVF | ND ND 4.30 | 4.30 | 5/9 (4.03) |
| EGDSLRYYYAN | GFNRRPS | SSRDSSYFQVF | 4.26 ND ND | 4.26 | 1/9 (3.84) |
| EGDSERYYYAN | GKNNIPS | SSRDSWGFQVF | ND ND ND | ND | 4/9 (4.23) |
| EGDSLRYYQAS | GKNNRPS | SSRDSSGFQRF | 2.90 1.81 1.61 | 2.10 | 1/9 (3.94) |
| EGDSLRYYYAN | GKNNRPS | SSRDSSKFPVF | 3.33 2.98 2.76 | 3.02 | 2/9 (4.04) |
| EGDSLRDYYAY | GKNNRPS | SSRDSSGFQVF | 3.62 4.77 ND | 4.20 | 0/9 |
| EGDSLRDYYAN | GKNNRPS | SSRDSSGFQVF | 1.48 1.34 1.22 | 1.35 | 2/9 (5.00) |
| EGISLRYYYAN | GKVNRPS | SSRDSSGFQVC | 3.09 ND ND | 3.09 | 2/9 (3.15) |
| EGDSLRYYYAN | GKNLRPQ | SSRDSSGFLVF | 2.98 3.02 3.79 | 3.26 | 3/9 (4.24) |
| EGDSLRYYYTN | GANNRPS | SDRDSSGFQVF | 2.95 2.38 2.40 | 2.58 | 6/9 (4.10) |
| EGDSLRYYYEN | GKNNRPS | SWRDSSEFQVF | 3.55 5.25 ND | 4.40 | 2/9 (4.56) |
| EGDSLRYYYAN | GKINRPS | SLRDSSGFQVF | ND 4.26 ND | 4.26 | 4/9 (3.53) |
| EGDSLRYYYAN | GKNGRPS | SSRDSSGQQVH | 2.77 ND ND | 2.77 | 0/9 |
| EGDSLRYYYAN | GKNNRPS | SFRDSGGFWVF | ND 3.33 ND | 3.33 | 3/9 (4.19) |
| EGDSLRYYHAN | GKNNFPS | SSRDWSGFQVF | 3.34 3.46 2.64 | 3.15 | 4/9 (4.16) |
| EGDSLQYSYAN | GKNNRPS | SIRDSSGFQVF | 1.13 1.08 0.54 | 0.92 | 5/9 (3.80) |
| EKDSLRYYDTN | GKNNRPS | SSRDSSGFQVF | 1.93 1.78 1.42 | 1.71 | 1/9 (4.32) |
| EGDSLRYYCAN | DKNNRPS | SSRDSVGFQVF | 3.00 3.33 2.91 | 3.08 | 3/9 (4.08) |
| EGDSLRYYYAP | GKNKRMS | SSRDSSGFQVF | ND ND ND | ND | 1/9 (3.84) |
| EGDSLRRYYAN | GKNNAPS | SSRDSSGIQVF | 3.14 ND 4.22 | 3.68 | 0/9 |
| EGVSQRYYYAN | GKNNRPD | SSRDSSGFQVF | 2.74 2.57 2.53 | 2.61 | 1/9 (3.77) |
| EGDSLRYYYAN | GKNNRPS | SSRDNSGNQVT | ND ND ND | ND | 0/9 |
| EGDSLRMYYAN | GKNNRPS | SSRDSSYFQVF | ND ND ND | ND | 1/9 (4.14) |

Picked from the list: the 4 lowest averages where every replicate gave a value.

{"CDR-L1": "EGDSLQYSYAN", "CDR-L2": "GKNNRPS", "CDR-L3": "SIRDSSGFQVF", "log10 Kd, replicates": "1.13 1.08 0.54", "mean log10 Kd (nM)": "0.92", "empty controls": "5/9 (3.80)"}
{"CDR-L1": "EGDSLRDYYAN", "CDR-L2": "GKNNRPS", "CDR-L3": "SSRDSSGFQVF", "log10 Kd, replicates": "1.48 1.34 1.22", "mean log10 Kd (nM)": "1.35", "empty controls": "2/9 (5.00)"}
{"CDR-L1": "EGDSLRYNYAN", "CDR-L2": "GKNSRPS", "CDR-L3": "SSRDSSGLQVF", "log10 Kd, replicates": "1.56 1.42 1.41", "mean log10 Kd (nM)": "1.46", "empty controls": "2/9 (4.85)"}
{"CDR-L1": "EKDSLRYYDTN", "CDR-L2": "GKNNRPS", "CDR-L3": "SSRDSSGFQVF", "log10 Kd, replicates": "1.93 1.78 1.42", "mean log10 Kd (nM)": "1.71", "empty controls": "1/9 (4.32)"}

In this assay the parent's reference entry averaged 2.31; its copy inside this library read 2.25.